For data set [1], the system named is Human BT474 Breast Carcinoma. Description: Planned efficacy and safety study of anti-HER2scFv XTEN drug conjugates and Kadcyla in BT474 xenograft (Example 46). In kind it is in vivo, female athymic nu/nu mice. The settings on record: 30 nmol/kg iv, expected. From the text: The following efficacy study is designed to decipher the effect of (1) MMAE versus DM1; (2) impact of MMAE clustered at the N-terminal close to the anti-HER2scFv targeting moiety versus MMAE evenly spaced on the CXTEN polymer; (3) impact of BSRS1; and performance of anti-HER2-XTEN drug conjugates in comparison to (4) benchmark Kadcyla.
Designated as Day 0, 48 mice bearing targeted tumor size of 100-150 mm^3 are selected from the 68 mice and sorted into 6 groups of 8 animals per group; with each group having approximately equivalent mean tumor volume.
Any clinical signs of distress, deaths or adverse events are also noted.

Data set [2] has as its system SK-OV-3 Ovarian Carcinoma. The data set is described as follows: Planned efficacy and safety study of anti-HER2scFv XTEN drug conjugates and Kadcyla in SK-OV-3 xenograft (Example 47). Conditions: 30 nmol/kg iv, expected. Format: in vivo, female athymic nu/nu mice. From the text: (§1) In the NCI-N87 xenograft model, 1x10^7 NCI-N87 cells are subcutaneously administered into the flank of 68 female SCID mice; while in the SK-OV-3 model, 1 mm^3 SK-OV-3 tumor fragment is subcutaneously implanted the flank of female athymic nu/nu mice. Designated as Day 0, 48 mice bearing targeted tumor size of 100-150 mm^3 are selected from the 68 mice and sorted into 6 groups of 8 animals per group; with each group having approximately equivalent mean tumor volume.
(§2) The endpoint for the SK-OV-3 study is defined as 2000 mm^3 or 30 days, whichever comes first. Percent tumor growth inhibition (% TGI) is calculated for each treatment group in both NCI-N87 and SK-OV-3 studies. […] Any clinical signs of distress, deaths or adverse events are also noted.

The subject of another data set is HCC1954. Description: CellTiter-Glo cytotoxicity of anti-HER2scFv XTEN drug conjugates with or without trastuzumab, HCC1954. Format: cell-based. The settings on record: HER2 positive but trastuzumab resistant HCC1954 cell line. From the text:
The specific cytotoxic activity of anti-HER2scFv-3xMMAE-XTEN720 and anti-HER2scFv-3xDM1-XTEN720 were compared to their corresponding non-targeting XTEN432-3xMMAE and XTEN432-3xDM1 precursors for their ability to effect cytotoxicity in a CellTiter-Glo cell viability assay. Using a panel of HER2 expressing cell lines which included but not limited to SK-BR-3, BT474, NCI-N87, SK-OV-3 and HCC1954, the specificity of anti-HER2scFv-3xMMAE-XTEN720 and anti-HER2scFv-3xDM1-XTEN720 were further elucidated in the presence and absence of trastuzumab as competitor (FIG. 83 and FIG. 84). Briefly, HER2 positive cells were plated at 1×10^4 into each well of a 96-well microtiter plate and allowed to attach to the plate by an overnight incubation at 37° C., 5% CO2. The anti-HER2scFv-3xMMAE-XTEN720 and anti-HER2scFv-3xDM1-XTEN720 conjugates, with and without trastuzumab treatment, as well as XTEN432-3xMMAE and XTEN432-3xDM1 conjugates were all introduced into the plate in a dose range (in duplicate) and plate was incubated for 3 days at 37° C., 5% CO2. […] Luminescence signals were then read on a luminometer and an IC50s (half maximal inhibitory concentration) was calculated with GraphPad Prism software.
(In general: ATP-based viability assays read luminescence as a measure of living cells.)

The test system of data set [3] is Human NCI-N87 Gastric Carcinoma. Description: Planned efficacy and safety study of anti-HER2scFv XTEN drug conjugates and Kadcyla in NCI-N87 xenograft (Example 47). Format: in vivo, female SCID mice. The settings on record: 30 nmol/kg iv, expected.
From the text: as §1, §2

The test system of data set [4] is human BT474 breast cancer cells. Conditions: for % TGI: Day 30.

Read-outs that look alike come from different tables or passages of the source.

For the substance anti-HER2scFv-3xDM1-XTEN720, the efficacy versus vehicle entry in data set [1], in data set [2] and in data set [3] was “more efficacious than vehicle in inducing tumor stasis or regression” throughout. The cytotoxic activity entry in the data set on HCC1954 was “strong cytotoxic activity”.
For the substance anti-HER2scFv-3xMMAE-XTEN720, the efficacy versus vehicle result in data set [1], in data set [2] and in data set [3] was “more efficacious than vehicle in inducing tumor stasis or regression” in each case. Also, the cytotoxic activity entry in the data set on HCC1954 is “strong cytotoxic activity”. The “% TGI” value in data set [4] (30 nmol/kg iv) is reported as 90%; in data set [4] (100 nmol/kg iv) it was 91%; in data set [4] (300 nmol/kg iv) it was 97%. Also, in data set [4] (30, 100 and 300 nmol/kg iv), the “tolerability, body weight” value is listed as “well tolerated with no visible weight loss”.

Values taken from patent US20180125988A1, “TARGETED XTEN CONJUGATE COMPOSITIONS AND METHODS OF MAKING SAME” (AMUNIX OPERATING INC., priority 2014, published 2018).
